# Screening results from PubChem.
# PglD DTNB – inhibitors of Campylobacter jejuni PglD acetyltransferase; purified PglD enzyme, DTNB colorimetric CoA detection; inhibition, % at 12.5 µM; 0.098% of 360,000 active; in the data active = inhibition above about 16%, passing the limit was not always enough
# ERp5 inh – inhibitors of human ERp5; Q15084; ERp5 insulin aggregation, absorbance 650 nm, 90 min; inhibition, % at 9.99 µM; 0.05% of 350,000 active; AID 651711;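 active = mean replicate inhibition above about 25%, with every replicate also reaching it, limit read from the data, passing the limit was not always enough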
# PDI inh – blocks human protein disulfide isomerase activity. PDI insulin aggregation turbidity, A650, 90 min. 0.052% of 350,000 active. inhibition, % at 10 µM. AID 588391. P07237;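 active = mean inhibition across replicates of 30% or more, whatever share of single replicates reach that level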
# Yeast UUG start – alters start codon recognition fidelity in yeast. S. cerevisiae UUG-firefly luciferase reporter, luminescence/redox ratio. 350,000 tested, 0.13% active. activity score, % at 18.7 µM. AID 602363;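 active means replicate mean at a twofold rise or more, about +100% in these data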;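 further: firefly luciferase made from a UUG start codon reports start codon fidelity; reporter light over untreated wells divided by growth signal over untreated wells; some hits fall short of that in this replicate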
# ARNT-TACC3 inh – disruptors of human ARNT/TACC3 interaction; Q9Y6A5; AlphaScreen His-ARNT PAS-B/GST-TACC3 binding, luminescence; TACC3 fragment carries E629A point mutation; inhibition, % at 9.99 µM; 0.66% of 390,000 active;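 active = mean inhibition of replicates at least 50% and at least half of replicates each reaching 50%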;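 also: 0% = complete ARNT plus TACC3 wells and 100% = ARNT alone without TACC3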
# FGF22 binding – binders of recombinant human FGF22 by thermal shift; Q9HCT0; SYPRO orange fluorescence; percent of sucrose octasulfate shift, DMSO zero; activity (Tm shift, normalised), % at 9.99 µM; 1.5% of 340,000 active; AID 651658;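 active = mean Tm shift, scaled 0 neutral to 100 positive control, at about 1.3% or above, every replicate too, limit read from the data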
# PglD confirm – blocks Campylobacter jejuni PglD acetyltransferase activity; inhibition, % at 20 µM; 320 tested, under 10 active; Purified C. jejuni PglD, DTNB absorbance 412 nm; shares compounds with PglD DTNB;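 active = mean inhibition across replicates of at least 20% with every single replicate also at 20% or more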;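 also: initial rate of CoA release by acetyl transfer from AcCoA to the UDP-4-amino sugar; 0% = median of neutral control wells and 100% = median of positive control wells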
# The depositor's hits bear a star; . = not tested or not shown. A selection: hits, their analogues and other compounds. The true share with any hit is near 1.9%.
[1] CCNC(=O)CC1C(=O)N(c2ccccc2)C(=O)N1Cc1ccc(OC)cc1 (centres undefined)
[2] CCNC(=O)CC1C(=O)N(c2ccccc2)C(=O)N1CCc1ccc(OC)c(OC)c1 (centres undefined)
[3] CCOc1ccccc1NC(=S)N1CCC(c2nc3ccccc3o2)CC1
[4] c1ccc(CNc2nc(-c3cccnc3)nc3ccccc23)cc1
[5] c1cncc(CNc2nc(-c3cccnc3)nc3ccccc23)c1
[6] C[C@@H]1CCCCO[C@@H](CN(C)Cc2ccncc2)[C@@H](C)CN([C@@H](C)CO)C(=O)c2cc(NC(=O)c3ccncc3)ccc2O1
[7] CN1C(=O)C(CC(=O)NC2CCCCC2)SC1=Nc1ccccc1 (centres undefined)
[8] CC(=O)N(C)C[C@@H]1Oc2ncc(-c3ccc(C#N)cc3)cc2C(=O)N([C@H](C)CO)C[C@@H]1C

assay / entry | 1 | 2 | 3 | 4 | 5 | 6 | 7 | 8
PglD DTNB | 33* | . | 21* | -5 | 24* | 0 | 54* | 1
ERp5 inh | . | . | 4 | 0 | -3 | -1 | 2 | -6
PDI inh | -1 | -9 | -10 | 8 | 1 | . | -1 | .
Yeast UUG start | -18 | . | -33 | -15 | -12 | . | -14 | -3
ARNT-TACC3 inh | 1 | 2 | -3 | -2 | 20 | -33 | -4 | -8
FGF22 binding | . | . | 0 | 0 | 0 | 0 | 1 | 0
PglD confirm | 0 | . | -1 | . | 3 | . | 8 | .

# Overlap with the part before: 2 compounds, then new ones.
[7] CN1C(=O)C(CC(=O)NC2CCCCC2)SC1=Nc1ccccc1 (centres undefined)
[8] CC(=O)N(C)C[C@@H]1Oc2ncc(-c3ccc(C#N)cc3)cc2C(=O)N([C@H](C)CO)C[C@@H]1C
[9] Cc1c(C(=O)NC(C)C)sc2ncn(CC(=O)N3CCC(C)CC3)c(=O)c12
[10] COc1ccc(S(=O)(=O)N[C@H]2CC[C@@H](CC(=O)N3CCC(Cc4ccccc4)CC3)O[C@@H]2CO)cc1
[11] CN(CC(=O)N1CCCc2c1c(=O)oc1ccc(O)cc21)Cc1ccccc1
[12] CC(C(=O)N1CCCc2c1c(=O)oc1ccc(O)cc21)N1CCc2ccccc2C1 (centres undefined)
[13] CCC(=O)C1=C(O)C(c2cccc(Oc3ccccc3)c2)CCC1=O (centres undefined)
[14] COc1ccc2c(c1)C(=O)CCC2c1ccccc1 (centres undefined)
[15] Cc1ccc(C(=O)NCc2ccc3c(c2)OCO3)cc1
[16] Cc1ccc(CN(c2ccc(C(=O)NCc3ccc4c(c3)OCO4)cc2)S(C)(=O)=O)cc1

assay / entry | 7 | 8 | 9 | 10 | 11 | 12 | 13 | 14 | 15 | 16
PglD DTNB | 54* | 1 | 24* | 1 | 0 | 23* | 28* | 7 | -1 | 27*
ERp5 inh | 2 | -6 | 2 | -4 | . | . | 0 | 4 | 4 | .
PDI inh | -1 | . | 10 | . | -3 | 10 | 14 | 0 | -2 | -4
Yeast UUG start | -14 | -3 | 6 | . | -1 | -8 | -11 | -16 | -8 | -5
ARNT-TACC3 inh | -4 | -8 | -2 | 1 | 4 | 4 | . | -6 | -8 | -6
FGF22 binding | 1 | 0 | . | 0 | . | . | 1 | 0 | 0 | .
PglD confirm | 8 | . | 0 | . | . | 7 | 1 | . | . | -2

[17] C[C@H]1CN([C@@H](C)CO)C(=O)Cc2cc(NC(=O)Cc3ccccc3)ccc2O[C@H]1CN(C)C(=O)Nc1ccc2c(c1)OCO2
[18] CC(C)OCCCn1c(=NC(=O)c2ccncc2)c(C#N)cc2c(=O)n3ccccc3nc21
[19] CC(C)OCCCn1c(=NC(=O)c2cccs2)c(C#N)cc2c(=O)n3ccccc3nc21
[20] O=C(CSc1ccccc1)NCCc1ccccc1
[21] O=C(CSc1ccccc1)NCCc1ccc(F)cc1
[22] Cc1ccc(-c2noc(CN3CCCCC3)n2)cc1
[23] Clc1ccc(-c2noc(CN3CCCC3)n2)cc1
[24] O=C(NCC1CCCO1)[C@@H]1CSC2c3ccccc3C(=O)N21 (some centres undefined)

assay / entry | 17 | 18 | 19 | 20 | 21 | 22 | 23 | 24
PglD DTNB | -3 | 4 | 68* | 0 | 76* | 0 | 31* | 22*
ERp5 inh | 5 | . | 0 | 2 | 5 | . | . | .
PDI inh | . | 1 | -2 | 12 | 1 | -1 | -8 | -3
Yeast UUG start | -1 | -13 | -10 | 3 | 4 | -11 | -19 | 1
ARNT-TACC3 inh | 2 | -9 | . | -3 | -4 | -9 | 3 | -8
FGF22 binding | 0 | . | 0 | 0 | 0 | . | . | .
PglD confirm | . | . | -8 | . | -1 | . | -4 | -6

[25] COCc1cn(CC[C@@H]2CC[C@H](NC(=O)Nc3ccc(C(F)(F)F)cc3)[C@H](CO)O2)nn1
[26] CC(=O)N1[C@@H](CO)[C@H](c2ccccc2)C12CN(C(=O)c1ccc3c(c1)OCO3)C2
[27] CN(c1ccccc1)S(=O)(=O)c1ccc2[nH]c(=O)oc2c1
[28] CN(Cc1ccccc1)S(=O)(=O)c1ccc2[nH]c(=O)oc2c1

assay / entry | 25 | 26 | 27 | 28
PglD DTNB | -1 | . | 29* | -3
ERp5 inh | 0 | 0 | 0 | 4
PDI inh | . | . | 9 | -4
Yeast UUG start | . | . | -7 | 0
ARNT-TACC3 inh | -4 | . | -2 | 1
FGF22 binding | 0 | 0 | 0 | 0
PglD confirm | . | . | 3 | .
